{
  "sequences": {"note": "The chains behind the UniProt entries cited, without tags or fusion partners. Where a name states a change or a piece, a line headed by the entry shows the natural chain unless it says otherwise.", "UniProt Q99683": "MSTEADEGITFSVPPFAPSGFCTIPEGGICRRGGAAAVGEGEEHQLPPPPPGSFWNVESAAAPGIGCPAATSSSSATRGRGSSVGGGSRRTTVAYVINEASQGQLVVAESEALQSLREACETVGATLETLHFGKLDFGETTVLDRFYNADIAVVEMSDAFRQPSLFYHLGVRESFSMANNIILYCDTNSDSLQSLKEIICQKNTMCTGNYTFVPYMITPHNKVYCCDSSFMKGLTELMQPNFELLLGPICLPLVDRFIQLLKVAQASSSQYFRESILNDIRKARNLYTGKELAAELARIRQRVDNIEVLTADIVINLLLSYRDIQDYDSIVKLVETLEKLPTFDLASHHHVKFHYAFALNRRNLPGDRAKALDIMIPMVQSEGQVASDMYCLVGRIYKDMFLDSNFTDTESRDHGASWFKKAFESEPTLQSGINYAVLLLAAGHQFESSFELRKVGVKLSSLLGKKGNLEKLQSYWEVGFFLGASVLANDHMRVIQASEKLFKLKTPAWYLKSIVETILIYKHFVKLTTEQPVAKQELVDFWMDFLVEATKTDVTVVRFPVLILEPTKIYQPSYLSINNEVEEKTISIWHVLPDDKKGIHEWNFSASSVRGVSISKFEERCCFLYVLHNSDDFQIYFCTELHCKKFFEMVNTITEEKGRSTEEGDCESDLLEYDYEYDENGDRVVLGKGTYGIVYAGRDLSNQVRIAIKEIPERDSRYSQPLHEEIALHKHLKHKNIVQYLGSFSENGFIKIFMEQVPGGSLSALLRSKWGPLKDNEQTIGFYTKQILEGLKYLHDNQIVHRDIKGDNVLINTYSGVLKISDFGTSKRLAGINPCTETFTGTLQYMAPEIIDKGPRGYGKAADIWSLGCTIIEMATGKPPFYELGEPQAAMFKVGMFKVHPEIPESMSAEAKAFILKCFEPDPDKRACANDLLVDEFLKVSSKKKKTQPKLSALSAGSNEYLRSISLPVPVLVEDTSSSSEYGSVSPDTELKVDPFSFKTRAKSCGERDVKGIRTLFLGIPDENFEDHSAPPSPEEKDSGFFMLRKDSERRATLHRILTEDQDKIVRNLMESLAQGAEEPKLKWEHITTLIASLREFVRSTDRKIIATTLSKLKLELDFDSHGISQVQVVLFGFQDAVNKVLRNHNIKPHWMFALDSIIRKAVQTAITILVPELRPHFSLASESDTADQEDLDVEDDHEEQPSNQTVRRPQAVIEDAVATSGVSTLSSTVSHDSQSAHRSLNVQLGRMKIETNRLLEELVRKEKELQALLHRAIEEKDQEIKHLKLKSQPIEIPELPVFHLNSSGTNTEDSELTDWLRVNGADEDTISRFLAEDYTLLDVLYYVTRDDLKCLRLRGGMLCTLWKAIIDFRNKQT", "UniProt Q13177, whole entry, looked up": "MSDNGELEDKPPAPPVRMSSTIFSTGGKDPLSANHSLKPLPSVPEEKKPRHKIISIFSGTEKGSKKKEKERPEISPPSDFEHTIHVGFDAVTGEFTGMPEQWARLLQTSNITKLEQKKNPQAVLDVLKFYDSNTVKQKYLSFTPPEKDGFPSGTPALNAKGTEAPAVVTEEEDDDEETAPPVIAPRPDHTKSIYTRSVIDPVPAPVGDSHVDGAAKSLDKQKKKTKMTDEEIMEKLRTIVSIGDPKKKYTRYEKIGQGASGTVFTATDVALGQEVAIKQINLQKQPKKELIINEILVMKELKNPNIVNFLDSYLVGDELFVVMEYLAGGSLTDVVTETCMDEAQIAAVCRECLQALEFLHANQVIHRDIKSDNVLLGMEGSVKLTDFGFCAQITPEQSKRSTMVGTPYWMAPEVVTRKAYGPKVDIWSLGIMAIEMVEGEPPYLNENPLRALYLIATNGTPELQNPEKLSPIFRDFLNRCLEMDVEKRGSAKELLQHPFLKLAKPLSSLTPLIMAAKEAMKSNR", "UniProt Q8IU85": "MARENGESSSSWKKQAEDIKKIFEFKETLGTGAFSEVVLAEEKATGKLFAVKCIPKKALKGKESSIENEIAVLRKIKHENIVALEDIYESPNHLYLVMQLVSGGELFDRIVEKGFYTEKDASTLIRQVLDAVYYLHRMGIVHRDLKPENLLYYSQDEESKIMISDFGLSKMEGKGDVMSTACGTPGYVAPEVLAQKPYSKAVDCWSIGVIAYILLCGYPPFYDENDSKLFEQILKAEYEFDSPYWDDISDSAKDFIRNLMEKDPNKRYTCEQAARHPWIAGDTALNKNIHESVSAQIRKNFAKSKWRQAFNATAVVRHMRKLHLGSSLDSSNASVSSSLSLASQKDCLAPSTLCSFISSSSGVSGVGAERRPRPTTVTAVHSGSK", "UniProt Q8NG66": "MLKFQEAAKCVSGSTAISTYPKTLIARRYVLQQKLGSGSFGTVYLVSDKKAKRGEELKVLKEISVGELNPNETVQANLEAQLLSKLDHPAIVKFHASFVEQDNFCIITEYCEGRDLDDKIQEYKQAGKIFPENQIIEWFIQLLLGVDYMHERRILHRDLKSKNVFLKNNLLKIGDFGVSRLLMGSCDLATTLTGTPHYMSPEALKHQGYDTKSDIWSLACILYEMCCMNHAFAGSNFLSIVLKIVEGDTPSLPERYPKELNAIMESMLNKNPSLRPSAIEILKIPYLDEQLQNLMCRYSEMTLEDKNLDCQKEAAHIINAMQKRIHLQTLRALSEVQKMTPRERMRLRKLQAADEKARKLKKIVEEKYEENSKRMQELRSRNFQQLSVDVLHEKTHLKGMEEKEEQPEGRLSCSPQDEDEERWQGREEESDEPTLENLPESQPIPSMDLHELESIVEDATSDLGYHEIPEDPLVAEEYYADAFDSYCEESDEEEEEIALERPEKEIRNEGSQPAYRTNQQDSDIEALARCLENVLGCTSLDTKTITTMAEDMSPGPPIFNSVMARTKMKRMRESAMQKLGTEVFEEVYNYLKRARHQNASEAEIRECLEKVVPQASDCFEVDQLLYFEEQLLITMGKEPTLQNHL", "UniProt P05771, whole entry, looked up": "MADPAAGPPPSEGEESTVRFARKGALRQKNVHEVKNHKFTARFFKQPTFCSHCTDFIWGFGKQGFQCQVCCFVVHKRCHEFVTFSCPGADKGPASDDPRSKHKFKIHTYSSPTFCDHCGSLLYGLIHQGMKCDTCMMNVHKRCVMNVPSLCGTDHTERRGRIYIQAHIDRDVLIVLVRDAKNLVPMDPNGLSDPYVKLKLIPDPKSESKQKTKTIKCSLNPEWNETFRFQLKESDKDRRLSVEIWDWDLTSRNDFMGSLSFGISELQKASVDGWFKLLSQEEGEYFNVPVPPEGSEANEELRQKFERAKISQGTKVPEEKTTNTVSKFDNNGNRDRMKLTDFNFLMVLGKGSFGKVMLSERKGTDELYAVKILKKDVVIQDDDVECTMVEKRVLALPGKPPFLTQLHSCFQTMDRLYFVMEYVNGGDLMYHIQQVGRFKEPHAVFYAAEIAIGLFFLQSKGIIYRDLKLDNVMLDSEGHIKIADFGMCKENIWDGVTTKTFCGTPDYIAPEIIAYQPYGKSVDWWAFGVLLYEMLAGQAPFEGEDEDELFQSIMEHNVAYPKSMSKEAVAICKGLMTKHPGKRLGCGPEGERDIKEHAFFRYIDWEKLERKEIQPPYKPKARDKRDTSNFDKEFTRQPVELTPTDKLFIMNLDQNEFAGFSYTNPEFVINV", "UniProt O60285": "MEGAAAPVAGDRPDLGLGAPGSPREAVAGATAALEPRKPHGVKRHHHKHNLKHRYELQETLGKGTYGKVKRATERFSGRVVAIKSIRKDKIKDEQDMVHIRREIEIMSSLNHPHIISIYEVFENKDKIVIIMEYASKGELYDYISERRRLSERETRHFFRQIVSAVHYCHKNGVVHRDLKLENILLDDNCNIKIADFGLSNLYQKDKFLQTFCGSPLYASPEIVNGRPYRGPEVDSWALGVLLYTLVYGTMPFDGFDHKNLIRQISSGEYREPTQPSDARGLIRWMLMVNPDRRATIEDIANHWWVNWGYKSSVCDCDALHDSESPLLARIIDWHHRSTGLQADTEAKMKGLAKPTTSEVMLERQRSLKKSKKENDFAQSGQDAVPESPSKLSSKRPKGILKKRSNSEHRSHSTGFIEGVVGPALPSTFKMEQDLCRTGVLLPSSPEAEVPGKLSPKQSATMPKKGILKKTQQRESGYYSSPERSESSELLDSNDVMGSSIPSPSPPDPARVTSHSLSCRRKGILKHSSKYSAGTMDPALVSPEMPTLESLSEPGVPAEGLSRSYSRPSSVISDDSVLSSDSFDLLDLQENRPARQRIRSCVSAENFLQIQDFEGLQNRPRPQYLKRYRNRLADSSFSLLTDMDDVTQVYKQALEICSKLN", "UniProt O75116": "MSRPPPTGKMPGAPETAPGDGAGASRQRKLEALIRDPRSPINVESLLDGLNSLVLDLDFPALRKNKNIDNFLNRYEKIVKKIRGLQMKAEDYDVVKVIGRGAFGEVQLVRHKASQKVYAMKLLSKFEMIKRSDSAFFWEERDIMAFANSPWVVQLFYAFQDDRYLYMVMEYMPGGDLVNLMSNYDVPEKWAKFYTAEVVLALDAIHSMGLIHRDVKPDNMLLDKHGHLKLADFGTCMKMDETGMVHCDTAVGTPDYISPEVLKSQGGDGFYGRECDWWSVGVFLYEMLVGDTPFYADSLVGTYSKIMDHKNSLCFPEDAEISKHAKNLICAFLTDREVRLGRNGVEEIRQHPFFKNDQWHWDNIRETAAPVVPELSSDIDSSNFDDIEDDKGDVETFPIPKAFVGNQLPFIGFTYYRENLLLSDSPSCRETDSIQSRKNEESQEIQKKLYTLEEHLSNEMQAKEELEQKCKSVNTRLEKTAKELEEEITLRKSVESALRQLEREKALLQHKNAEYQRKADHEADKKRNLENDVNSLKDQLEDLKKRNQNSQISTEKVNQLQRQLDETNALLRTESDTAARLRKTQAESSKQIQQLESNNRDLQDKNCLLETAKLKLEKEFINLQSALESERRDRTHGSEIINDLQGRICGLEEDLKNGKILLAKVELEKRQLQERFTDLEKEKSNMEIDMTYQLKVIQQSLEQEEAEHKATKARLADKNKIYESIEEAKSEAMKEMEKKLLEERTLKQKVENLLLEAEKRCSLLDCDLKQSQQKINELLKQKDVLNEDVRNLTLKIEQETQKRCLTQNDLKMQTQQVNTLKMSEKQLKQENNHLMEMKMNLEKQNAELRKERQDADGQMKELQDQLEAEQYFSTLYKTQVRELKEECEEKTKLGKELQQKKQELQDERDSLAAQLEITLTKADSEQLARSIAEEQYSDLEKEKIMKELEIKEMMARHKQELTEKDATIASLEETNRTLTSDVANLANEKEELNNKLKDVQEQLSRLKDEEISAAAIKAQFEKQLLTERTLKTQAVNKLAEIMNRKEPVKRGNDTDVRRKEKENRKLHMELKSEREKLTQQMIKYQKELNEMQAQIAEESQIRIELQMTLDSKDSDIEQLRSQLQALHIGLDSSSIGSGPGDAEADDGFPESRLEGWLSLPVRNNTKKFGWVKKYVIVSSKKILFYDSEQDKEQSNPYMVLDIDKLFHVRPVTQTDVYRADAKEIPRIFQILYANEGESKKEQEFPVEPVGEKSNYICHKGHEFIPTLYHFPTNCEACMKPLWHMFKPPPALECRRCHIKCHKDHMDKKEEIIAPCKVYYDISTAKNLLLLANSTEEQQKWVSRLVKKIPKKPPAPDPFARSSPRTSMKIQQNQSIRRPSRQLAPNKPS", "UniProt P48729": "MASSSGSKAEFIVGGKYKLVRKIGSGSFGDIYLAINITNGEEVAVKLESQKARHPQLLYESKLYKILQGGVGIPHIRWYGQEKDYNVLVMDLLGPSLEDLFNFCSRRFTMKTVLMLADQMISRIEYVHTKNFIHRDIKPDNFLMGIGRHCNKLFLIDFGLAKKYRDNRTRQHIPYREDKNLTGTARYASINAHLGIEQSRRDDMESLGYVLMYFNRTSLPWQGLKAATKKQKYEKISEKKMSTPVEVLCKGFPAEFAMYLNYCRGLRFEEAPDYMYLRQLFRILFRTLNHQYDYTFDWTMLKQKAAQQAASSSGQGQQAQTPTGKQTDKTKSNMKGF", "UniProt O15264": "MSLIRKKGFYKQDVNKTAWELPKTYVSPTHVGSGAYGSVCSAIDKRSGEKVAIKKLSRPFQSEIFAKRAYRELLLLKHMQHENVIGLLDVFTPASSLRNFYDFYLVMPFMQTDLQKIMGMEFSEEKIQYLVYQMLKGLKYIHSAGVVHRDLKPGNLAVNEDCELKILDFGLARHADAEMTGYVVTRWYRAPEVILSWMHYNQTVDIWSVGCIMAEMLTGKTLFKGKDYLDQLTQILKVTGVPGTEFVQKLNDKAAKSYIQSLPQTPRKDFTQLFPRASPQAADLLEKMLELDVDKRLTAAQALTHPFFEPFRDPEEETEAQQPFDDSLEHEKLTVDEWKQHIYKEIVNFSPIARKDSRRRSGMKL"},
  "source": "the kinase profiling compilation of Christmann-Franck et al. (2016)",
  "assay_in_all_cases": "radiometric filter-binding kinase assay, Kinase HotSpot",
  "conditions_in_all_cases": "compound 0.5 µM; ATP 10 µM",
  "key": {"NEK3 (human)": {"biological_target": "NEK3 (human) (UniProt P51956)"}, "CLK4 (human)": {"biological_target": "CLK4 (human) (UniProt Q9HAZ1)"}, "AURKC (human)": {"biological_target": "AURKC (human) (UniProt Q9UQB9)"}, "AKT3 (human)": {"biological_target": "AKT3 (human) (UniProt Q9Y243)"}, "MAP3K5 (human)": {"biological_target": "MAP3K5 (human) (UniProt Q99683)"}, "MST4 (human)": {"biological_target": "MST4 (human) (UniProt Q9P289)"}, "HIPK3 (human)": {"biological_target": "HIPK3 (human) (UniProt Q9H422)"}, "CAMKK2 (human)": {"biological_target": "CAMKK2 (human) (UniProt Q96RR4)"}, "RIPK2 (human)": {"biological_target": "RIPK2 (human) (UniProt O43353)"}, "PRKD1 (human)": {"biological_target": "PRKD1 (human) (UniProt Q15139)"}, "PAK2 (human)": {"biological_target": "PAK2 (human) (UniProt Q13177)"}, "MAPKAPK3 (human)": {"biological_target": "MAPKAPK3 (human) (UniProt Q16644)"}, "CAMK1D (human)": {"biological_target": "CAMK1D (human) (UniProt Q8IU85)"}, "PRKCD (human)": {"biological_target": "PRKCD (human) (UniProt Q05655)"}, "RAF1 (human)": {"biological_target": "RAF1 (human) (UniProt P04049)"}, "MAPK14 (human)": {"biological_target": "MAPK14 (human) (UniProt Q16539)"}, "LRRK2 (human)": {"biological_target": "LRRK2 (human) (UniProt Q5S007)"}, "PTK2 (human)": {"biological_target": "PTK2 (human) (UniProt Q05397)"}, "NTRK2 (human)": {"biological_target": "NTRK2 (human) (UniProt Q16620)"}, "INSR (human)": {"biological_target": "INSR (human) (UniProt P06213)"}, "NTRK1 (human)": {"biological_target": "NTRK1 (human) (UniProt P04629)"}, "HCK (human)": {"biological_target": "HCK (human) (UniProt P08631)"}, "STK11 (human)": {"biological_target": "STK11 (human) (UniProt Q15831)"}, "PLK2 (human)": {"biological_target": "PLK2 (human) (UniProt Q9NYY3)"}, "NEK2 (human)": {"biological_target": "NEK2 (human) (UniProt P51955)"}, "NEK11 (human)": {"biological_target": "NEK11 (human) (UniProt Q8NG66)"}, "DYRK2 (human)": {"biological_target": "DYRK2 (human) (UniProt Q92630)"}, "TXK (human)": {"biological_target": "TXK (human) (UniProt P42681)"}, "ACVR1 (human)": {"biological_target": "ACVR1 (human) (UniProt Q04771)"}, "PRKCB1 (human)": {"biological_target": "PRKCB1 (human) (UniProt P05771)"}, "NUAK1 (human)": {"biological_target": "NUAK1 (human) (UniProt O60285)"}, "ROCK2 (human)": {"biological_target": "ROCK2 (human) (UniProt O75116)"}, "PAK6 (human)": {"biological_target": "PAK6 (human) (UniProt Q9NQU5)"}, "CSNK1A1 (human)": {"biological_target": "CSNK1A1 (human) (UniProt P48729)"}, "PAK1 (human)": {"biological_target": "PAK1 (human) (UniProt Q13153)"}, "PBK (human)": {"biological_target": "PBK (human) (UniProt Q96KB5)"}, "MAP3K14 (human)": {"biological_target": "MAP3K14 (human) (UniProt Q99558)"}, "YES1 (human)": {"biological_target": "YES1 (human) (UniProt P07947)"}, "MAPK13 (human)": {"biological_target": "MAPK13 (human) (UniProt O15264)"}, "DAPK1 (human)": {"biological_target": "DAPK1 (human) (UniProt P53355)"}, "AURKB (human)": {"biological_target": "AURKB (human) (UniProt Q96GD4)"}, "NEK6 (human)": {"biological_target": "NEK6 (human) (UniProt Q9HC98)"}},
  "data": [
    {"smiles": "CO[C@H]1[C@@H](OC)C[C@H](C)[C@@H](OC)C2=CC(=O)C=C(NC(=O)/C(C)=C\\C=C/[C@H](OC)[C@@H](OC(N)=O)/C(C)=C\\[C@@H]1C)C2=O", "values": [
      {"measurement": "residual activity", "setting": "NEK3 (human)", "value": 111, "unit": "%"},
      {"measurement": "residual activity", "setting": "CLK4 (human)", "value": 86.9, "unit": "%"},
      {"measurement": "residual activity", "setting": "AURKC (human)", "value": 99.5, "unit": "%"},
      {"measurement": "residual activity", "setting": "AKT3 (human)", "value": 94.1, "unit": "%"},
      {"measurement": "residual activity", "setting": "MAP3K5 (human)", "value": 99.4, "unit": "%"},
      {"measurement": "residual activity", "setting": "MST4 (human)", "value": 85.3, "unit": "%"},
      {"measurement": "residual activity", "setting": "HIPK3 (human)", "value": 102, "unit": "%"},
      {"measurement": "residual activity", "setting": "CAMKK2 (human)", "value": 97.3, "unit": "%"},
      {"measurement": "residual activity", "setting": "RIPK2 (human)", "value": 115, "unit": "%"},
      {"measurement": "residual activity", "setting": "PRKD1 (human)", "value": 97.3, "unit": "%"},
      {"measurement": "residual activity", "setting": "PAK2 (human)", "value": 96.1, "unit": "%"},
      {"measurement": "residual activity", "setting": "MAPKAPK3 (human)", "value": 105, "unit": "%"},
      {"measurement": "residual activity", "setting": "CAMK1D (human)", "value": 92.8, "unit": "%"},
      {"measurement": "residual activity", "setting": "PRKCD (human)", "value": 96.8, "unit": "%"},
      {"measurement": "residual activity", "setting": "RAF1 (human)", "value": 92.7, "unit": "%"},
      {"measurement": "residual activity", "setting": "MAPK14 (human)", "value": 93.9, "unit": "%"},
      {"measurement": "residual activity", "setting": "LRRK2 (human)", "value": 92, "unit": "%"},
      {"measurement": "residual activity", "setting": "PTK2 (human)", "value": 103, "unit": "%"},
      {"measurement": "residual activity", "setting": "NTRK2 (human)", "value": 94, "unit": "%"},
      {"measurement": "residual activity", "setting": "INSR (human)", "value": 95.6, "unit": "%"},
      {"measurement": "residual activity", "setting": "NTRK1 (human)", "value": 92.3, "unit": "%"},
      {"measurement": "residual activity", "setting": "HCK (human)", "value": 107, "unit": "%"},
      {"measurement": "residual activity", "setting": "STK11 (human)", "value": 102, "unit": "%"},
      {"measurement": "residual activity", "setting": "PLK2 (human)", "value": 102, "unit": "%"},
      {"measurement": "residual activity", "setting": "NEK2 (human)", "value": 102, "unit": "%"},
      {"measurement": "residual activity", "setting": "NEK11 (human)", "value": 104, "unit": "%"},
      {"measurement": "residual activity", "setting": "DYRK2 (human)", "value": 93.4, "unit": "%"},
      {"measurement": "residual activity", "setting": "TXK (human)", "value": 98.1, "unit": "%"},
      {"measurement": "residual activity", "setting": "ACVR1 (human)", "value": 102, "unit": "%"},
      {"measurement": "residual activity", "setting": "PRKCB1 (human)", "value": 92.5, "unit": "%"},
      {"measurement": "residual activity", "setting": "NUAK1 (human)", "value": 90.1, "unit": "%"},
      {"measurement": "residual activity", "setting": "ROCK2 (human)", "value": 95.4, "unit": "%"},
      {"measurement": "residual activity", "setting": "PAK6 (human)", "value": 96.3, "unit": "%"},
      {"measurement": "residual activity", "setting": "CSNK1A1 (human)", "value": 107, "unit": "%"},
      {"measurement": "residual activity", "setting": "PAK1 (human)", "value": 94.1, "unit": "%"},
      {"measurement": "residual activity", "setting": "PBK (human)", "value": 101, "unit": "%"},
      {"measurement": "residual activity", "setting": "MAP3K14 (human)", "value": 67.9, "unit": "%"},
      {"measurement": "residual activity", "setting": "YES1 (human)", "value": 90.5, "unit": "%"},
      {"measurement": "residual activity", "setting": "MAPK13 (human)", "value": 104, "unit": "%"},
      {"measurement": "residual activity", "setting": "DAPK1 (human)", "value": 101, "unit": "%"},
      {"measurement": "residual activity", "setting": "AURKB (human)", "value": 93.6, "unit": "%"},
      {"measurement": "residual activity", "setting": "NEK6 (human)", "value": 101, "unit": "%"}
    ]}
  ]
}
